# Target: Sodium-dependent serotonin transporter (Rattus norvegicus, UniProt P31652)
# By UniProt entry, the sequences of proteins in these tests, tags left out.
# UniProt P31652, whole entry: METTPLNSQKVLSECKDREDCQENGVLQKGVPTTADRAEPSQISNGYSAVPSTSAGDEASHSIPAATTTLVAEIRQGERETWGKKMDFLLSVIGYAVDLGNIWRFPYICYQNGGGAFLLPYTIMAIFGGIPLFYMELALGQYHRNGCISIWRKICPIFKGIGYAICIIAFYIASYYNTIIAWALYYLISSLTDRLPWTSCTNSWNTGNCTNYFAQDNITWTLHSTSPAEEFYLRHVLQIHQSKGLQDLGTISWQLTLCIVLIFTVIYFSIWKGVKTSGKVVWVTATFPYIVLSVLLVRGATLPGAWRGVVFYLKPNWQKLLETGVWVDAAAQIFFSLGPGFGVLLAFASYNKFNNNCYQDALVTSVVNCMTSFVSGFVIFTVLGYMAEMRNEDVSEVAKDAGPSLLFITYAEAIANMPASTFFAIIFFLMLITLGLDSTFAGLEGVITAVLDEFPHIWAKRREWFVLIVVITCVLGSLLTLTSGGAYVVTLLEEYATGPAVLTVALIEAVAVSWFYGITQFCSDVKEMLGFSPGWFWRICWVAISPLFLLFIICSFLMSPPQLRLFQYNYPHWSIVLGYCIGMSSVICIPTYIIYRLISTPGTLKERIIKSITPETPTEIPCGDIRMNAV
row,Structure (SMILES),Ki
1,N[C@H]1CC[C@@H](c2ccc(Cl)c(Cl)c2)c2ccccc21,53.6 nM
2,CNCCC=C1c2ccccc2CSc2ccccc21 [CAS_1154-09-2],192 nM
3,CC(C)CC(N(C)C)C1(c2ccc(Cl)cc2)CCC1 (centres undefined) [CAS_106650-56-0],3130 nM
4,CNC(CC(C)C)C1(c2ccc(Cl)cc2)CCC1 (centres undefined) [DESMETHYLSIBUTRAMINE],19.3 nM

# From BindingDB's records for doi:10.1016/0028-3908(93)90181-2 (Boots Pharmaceuticals, 1993)
